This test concerns human lung cancer cell NCI-H460. Description: Tumor cell viability by MTT assay. The test is classed as cell-based. As to conditions: NCI-H460, 96 h, read-out: H460 IC50. As for the experimental part: After 24 hours, 100 μL of fresh medium containing different concentrations of test compounds and the corresponding solvent control was added into each well to a final concentration of DMSO less than 0.2%. Six to nine concentration groups were set for each test compound, and three parallel wells were set for each group. The plate was incubated at 5% CO2, 37° C. for 96 hours. 20 μL of freshly prepared PBS solution containing 5 mg/mL MTT was added to each well. The supernatant was discarded after incubation for another 4 hours. 150 μL DMSO was added to each well to dissolve the MTT formazan precipitate. After being mixed by a micro-oscillator, the optical density (OD) was measured at the wavelength of 570 nm, and the tumor cells treated with DMSO were used as a control group.
For orientation: Tetrazolium assays rely on reduction of a dye to a coloured formazan, in cell work by metabolically active cells.

As usually defined, the IC50 is the concentration that inhibits the measured activity by half.

As for `COc1ncc(-c2cc(OC3CCOCC3)c3nc(N)nc(C)c3c2)cc1NS(=O)(=O)c1ccc(F)cc1F` [Example 1, N-(5-(2-amino-4-methyl-8-((tetrahydro-2H-pyran-4-yl)oxy)quinazolin-6-yl)-2-methoxypyridin-3-yl)-2,4-difluorobenzenesulfonamide], the 50% inhibitory concentration (IC50) was found to be 29 nM.

The values are drawn from patent US11534443B2, “Quinazoline compounds, preparation method, use, and pharmaceutical composition thereof” (INSTITUTE OF MATERIA MEDICA, CHINESE ACADEMY OF MEDICAL …, priority 2016, dated 2022).
